This note sets out measurements from ChEMBL document CHEMBL5352471, “Design, synthesis, and pharmacological evaluations of pyrrolo[1,2-a]quinoxaline-based derivatives as potent and selective sirt6 activators” (Eur J Med Chem, 2023).

Chains of the proteins cited; added tags and fusions are not shown. Lines headed by an entry give the natural chain unless they say otherwise; changes in a name come on top.
UniProt Q9NXA8: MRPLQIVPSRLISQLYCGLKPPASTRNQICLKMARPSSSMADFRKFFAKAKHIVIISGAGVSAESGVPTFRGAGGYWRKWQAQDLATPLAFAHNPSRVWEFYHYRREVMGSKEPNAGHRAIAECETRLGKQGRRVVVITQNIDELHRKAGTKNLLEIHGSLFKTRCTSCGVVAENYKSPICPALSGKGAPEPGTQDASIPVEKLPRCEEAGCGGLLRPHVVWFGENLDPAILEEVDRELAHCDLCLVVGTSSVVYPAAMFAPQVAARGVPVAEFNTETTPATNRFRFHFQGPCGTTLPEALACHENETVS

Assay [1] deals with T1, NAD-dependent protein deacetylase sirtuin-1 (Homo sapiens) (UniProt Q96EB6).
T1 sequence (whole entry): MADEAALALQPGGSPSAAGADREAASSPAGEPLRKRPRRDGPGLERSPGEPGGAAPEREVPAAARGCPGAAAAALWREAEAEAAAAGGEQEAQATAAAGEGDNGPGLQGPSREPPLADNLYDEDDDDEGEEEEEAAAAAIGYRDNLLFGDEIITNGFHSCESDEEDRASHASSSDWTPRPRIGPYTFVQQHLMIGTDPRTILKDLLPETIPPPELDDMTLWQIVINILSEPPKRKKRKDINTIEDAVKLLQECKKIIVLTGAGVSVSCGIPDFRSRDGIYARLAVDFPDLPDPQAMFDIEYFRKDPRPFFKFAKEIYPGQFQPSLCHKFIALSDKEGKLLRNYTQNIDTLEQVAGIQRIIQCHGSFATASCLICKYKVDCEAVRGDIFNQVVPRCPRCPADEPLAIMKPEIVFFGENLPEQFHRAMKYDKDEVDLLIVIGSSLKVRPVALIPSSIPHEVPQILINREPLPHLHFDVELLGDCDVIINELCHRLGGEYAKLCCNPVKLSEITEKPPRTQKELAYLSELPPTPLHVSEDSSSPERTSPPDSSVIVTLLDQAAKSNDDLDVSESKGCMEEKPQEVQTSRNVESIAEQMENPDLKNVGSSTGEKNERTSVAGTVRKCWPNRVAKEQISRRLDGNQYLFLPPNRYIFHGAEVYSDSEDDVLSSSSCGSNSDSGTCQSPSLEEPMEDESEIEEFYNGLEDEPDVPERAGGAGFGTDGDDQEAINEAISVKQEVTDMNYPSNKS
Nature of the assay: Activation of human SIRT1 (unknown origin) deacetylation activity using fluorogenic substrate measured upto 120 mins by microplate reader analysis. In a few lines: (§1)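 Recombinant Sirt1 or Sirt2 was assayed with a kit fluoro-substrate peptide (0.1 mM stock), NAD+ (8 mM stock) and developer in a 25 µL reaction at room temperature. Fluorescence was read over 125 min, at Ex/Em 350/450 nm for Sirt1 and 490/530 nm for Sirt2.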

Assay [2] has as its target T2, NAD-dependent protein deacetylase sirtuin-2 (Homo sapiens) (UniProt Q8IXJ6).
T2 sequence (whole entry): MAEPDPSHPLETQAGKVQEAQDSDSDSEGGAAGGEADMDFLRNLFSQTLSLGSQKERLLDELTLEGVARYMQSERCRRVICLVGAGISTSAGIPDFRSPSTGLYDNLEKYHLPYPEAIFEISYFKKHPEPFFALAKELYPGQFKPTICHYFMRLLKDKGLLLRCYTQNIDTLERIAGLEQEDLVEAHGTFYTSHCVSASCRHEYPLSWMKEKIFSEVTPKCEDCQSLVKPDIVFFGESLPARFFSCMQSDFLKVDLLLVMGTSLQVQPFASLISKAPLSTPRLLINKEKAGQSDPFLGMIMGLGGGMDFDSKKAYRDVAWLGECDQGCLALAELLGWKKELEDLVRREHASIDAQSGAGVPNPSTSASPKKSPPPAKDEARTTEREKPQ
In words: Activation of human SIRT2 (unknown origin) deacetylation activity using fluorogenic substrate measured upto 120 mins by microplate reader analysis. In a few lines: as §1

The target of assay [3] is NAD-dependent protein deacylase sirtuin-5, mitochondrial (Homo sapiens) (UniProt Q9NXA8). Nature of the assay: Activation of human SIRT5 (unknown origin) desuccinylation activity using fluorogenic substrate measured upto 120 mins by microplate reader analysis.

Molecules are shown by their SMILES. Calls of active or inactive are those of the source. The rule behind the calls is not given here.

As for `c1ccc2c(c1)NC(c1cccnc1N1CCN(CCN3CCCC3)CC1)c1cccn1-2` (stereo not given), the outcome in assay [1], in assay [2] and in assay [3] was inactive. For the same compound, the result in assay [1] (filed as activator) was Active.
Take `c1ccc2c(c1)NC(c1cccnc1N1CCN(CCn3ccnc3)CC1)c1cccn1-2` (stereo not given): the outcome in assay [1], in assay [2] and in assay [3] was inactive. In addition, the outcome in assay [1] (filed as activator) was Active.
As for `OCCN1CCN(c2ncccc2C2Nc3ccccc3-n3cccc32)CC1` (stereo not given), the outcome in assay [1], in assay [2] and in assay [3] was inactive. In addition, in assay [1] (filed as activator), the outcome was Active.
`OC1CN(CCN2CCN(c3ncccc3C3Nc4ccccc4-n4cccc43)CC2)C1` (stereo not given): the result in assay [1], in assay [2] and in assay [3] was inactive. For the same compound, the result in assay [1] (filed as activator) was Active.
As to `COCCN1CCN(c2ncccc2C2Nc3ccccc3-n3cccc32)CC1` (stereo not given), the result in assay [1], in assay [2] and in assay [3] was inactive. The outcome in assay [1] (filed as activator) was Active.
